Protein sequences, listed by entry. Tags and fused reporters are not part of them.
UniProt P16257, whole entry, looked up: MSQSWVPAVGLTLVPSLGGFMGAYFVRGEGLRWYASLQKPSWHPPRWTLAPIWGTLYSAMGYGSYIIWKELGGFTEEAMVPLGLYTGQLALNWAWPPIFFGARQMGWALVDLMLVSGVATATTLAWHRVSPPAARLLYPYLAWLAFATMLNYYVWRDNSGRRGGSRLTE

These molecules were tested against T1, Translocator protein (Rattus norvegicus, UniProt P16257).
Work on `Cc1ccc(C2=C(OC(=O)N(C)C)c3cccn3-c3ccccc3O2)cc1` yielded an IC50 of 1.3 nM. In the case of `CN(C)C(=O)OC1=C(c2ccccc2)Oc2ccccc2-n2cccc21`, the IC50 is reported as 5.1 nM. `CN(C)C(=O)OC1=C(c2ccccc2)Oc2cc3ccccc3cc2-n2cccc21` was tested, and the IC50 was 37.3 nM.

Target: T1, Translocator protein
Remark: another data set of the same source
`CN(C)C(=O)OC1=C(c2ccccc2)Oc2cc3ccccc3cc2-n2cccc21` showed a Ki of 14.5 nM.

What follows are molecules tested on Y-1 (assay: Stimulation of steroid (pregnenolone) biosynthesis in mouse Y-1 adrenocortical cells at 40 uM).
With `CCN(CC)C(=O)OC1=C(c2ccc(C)cc2)Oc2ccccc2-n2cccc21` the Production was 40.4 ng 2hr-1. Work on `CN(C)C(=O)OC1=C(c2ccccc2)Sc2c(Cl)cccc2-n2cccc21` yielded a Production of 29.3 ng 2hr-1. `CC(=O)OC1=C(c2ccc(C)cc2)Oc2ccccc2-n2cccc21` gave a Production of 29.3 ng 2hr-1. `CN(C)C(=O)OC1=C(c2ccc3ccccc3c2)Oc2ccccc2-n2cccc21` was tested, and the Production was 27.5 ng 2hr-1. Work on `O=C1CN=C(c2ccccc2Cl)c2cc([N+](=O)[O-])ccc2N1` yielded a Production of 22.1 ng 2hr-1. Work on `CN1C(=O)CN=C(c2ccc(Cl)cc2)c2cc(Cl)ccc21` yielded a Production of 29.5 ng 2hr-1. `CCC(C)N(C)C(=O)c1cc2ccccc2c(-c2ccccc2Cl)n1` (stereo unspecified) showed a Production of 33.2 ng 2hr-1.

From ChEMBL document CHEMBL1129620 (J Med Chem, 1996)
